The data set can be described thus: label from the status in PepcDB records.

Consider “MGHHHHHHSHGICLIIDCIGNETELLRDTFTSLGYEVQKFLHLSMHGISQILGQFACMPEHRDYDSFVCVLVSRGGSQSVYGVDQTHSGLPLHHIRRMFMGDSCPYLAGKPKMFFIQNYVVSEGQLEDSSLLEVDGPAMKNVEFKAQKRGLCTVHREADFFWSLCTADMSLLEQSHSSPSLYLQCLSQKLRQERKRPLLDLHIELNGYMYDWNSRVSAKEKYYVWLQHTLRKKLILSYT”, for which the protein production result is reported as “failed”. As for “SSDMEDDFMCDDEEDYDLEYSEDSNSEPNVDLENQYYNSKALKEDDPKAALSSFQKVLELEGEKGEWGFKALKQMIKINFKLTNFPEMMNRYKQLLTYIRSAVTRNYSEKSINSILDYISTSKQMDLLQEFYETTLEALKDAKNDRLWFKTNTKLGKLYLEREEYGKLQKILRQLHQSCQTDDGEDDLKKGTQLLEIYALEIQMYTAQKNNKKLKALYEQSLHIKSAIPHPLIMGVIRECGGKMHLREGEFEKAHTDFFEAFKNYDESGSPRRTTCLKYLVLANMLMKSGINPFDSQEAKPYKNDPEILAMTNLVSAYQNNDITEFEKILKTNHSNIMDDPFIREHIEELLRNIRTQVLIKLIKPYTRIHIPFISKELNIDVADVESLLVQCILDNTIHGRIDQVNQLLELDHQKRGGARYTALDKWTNQLNSLNQAVVSKLA”, the protein production entry is listed as “failed”.
